Experimental data from paper PMC11904993, “Humanized Candida and NanoBiT Assays Expedite Discovery of Bdf1 Bromodomain Inhibitors With Antifungal Potential” (Advanced Science, 2025).

Columns and labels:
human Brd4 BD2 = human Brd4 BD2 (Homo sapiens, UniProt O60885); assay: HTRF assay, inhibition of H4ac4 peptide binding; conditions: for pIC50 hBrd4 BD2: Fig 1D/2A original data, single experiments Exp1-3; for %HTRF Signal: hBrd4 BD2, Exp1-3, listed as cmpd 29
human Brd4 BD1 = human Brd4 BD1 (Homo sapiens, UniProt O60885); assay: HTRF assay, inhibition of H4ac4 peptide binding; conditions: hBrd4 BD1; compound 512 nM; Exp1-3; listed as cmpd 29

Row | SMILES | pIC50 hBrd4 BD2 (human Brd4 BD2) | %HTRF Signal (human Brd4 BD1) | %HTRF Signal (human Brd4 BD2; compound 32.77 nM) | %HTRF Signal (human Brd4 BD2; compound 81.92 nM) | %HTRF Signal (human Brd4 BD2; compound 512 nM)
1 | CCC(C)NC(=O)Nc1cc2c(cc1Oc1ccccc1)n(C)c(=O)n2C (stereo not drawn) | 5.551 and 5.450 and 5.614 | – | – | – | –
2 | CC(=O)N1CCc2[nH]c3ccc(C(=O)Nc4ccc(N5CCOCC5)cc4)cc3c2C1 | 6.360 and 6.127 and 6.425 | 81.99% and 82.87% and 83.51% | 92.24% and 93.64% | 72.83% and 79.06% and 86.06% | 58.18% and 33.79% and 37.53%

Values joined by “and” are separate entries in the source; they are usually repeats but may differ in a detail not shown here. Equal entries are not always repeated.
